From patent publication US8853193B2, “Thienopyrimidines containing a substituted alkyl group for pharmaceutical compositions” (Boehringer Ingelheim International GmbH, priority 2010, dated 2014)

The chains behind the UniProt entries cited, without tags or fusion partners.
UniProt Q9HBH9, whole entry: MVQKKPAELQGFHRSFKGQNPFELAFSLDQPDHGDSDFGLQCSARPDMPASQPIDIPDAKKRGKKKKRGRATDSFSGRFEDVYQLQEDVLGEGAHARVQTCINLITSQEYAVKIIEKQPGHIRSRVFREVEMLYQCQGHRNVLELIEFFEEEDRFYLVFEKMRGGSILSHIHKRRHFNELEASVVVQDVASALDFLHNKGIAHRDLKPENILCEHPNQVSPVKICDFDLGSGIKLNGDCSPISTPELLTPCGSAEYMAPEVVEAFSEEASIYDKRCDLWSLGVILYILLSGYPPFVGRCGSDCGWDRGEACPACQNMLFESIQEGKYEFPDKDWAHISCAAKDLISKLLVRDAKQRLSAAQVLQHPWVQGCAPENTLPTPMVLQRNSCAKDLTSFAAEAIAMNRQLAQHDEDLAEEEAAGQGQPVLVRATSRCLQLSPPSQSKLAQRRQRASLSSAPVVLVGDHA

Molecular target: human Mnk2a (Homo sapiens (Human), UniProt Q9HBH9)
Test: Mnk2a in vitro kinase assay (indirect competitive fluorescence polarization)
Format: biochemical
Conditions: read-out: MNK2 IC50; pre-activated GST-Mnk2a 2.5 nM, 20 μM ATP, 30 μM substrate peptide

IC50: 0.013 µM
SMILES: Cc1c(C(=O)NCCCN(C)C)sc2ncnc(Nc3ccc(F)cc3OC(C)CC(F)(F)F)c12 (stereo not shown)
